For the assay, the target named is Epithelial discoidin domain-containing receptor 1 (Homo sapiens) (UniProt Q08345). Kind of assay: Inhibition of DDR1 (unknown origin) at 0.1 uM relative to control.

Amino acid sequences for entries named in this document (tags omitted). A change or cut given only in a name is not applied to a line headed by its entry.
UniProt Q08345: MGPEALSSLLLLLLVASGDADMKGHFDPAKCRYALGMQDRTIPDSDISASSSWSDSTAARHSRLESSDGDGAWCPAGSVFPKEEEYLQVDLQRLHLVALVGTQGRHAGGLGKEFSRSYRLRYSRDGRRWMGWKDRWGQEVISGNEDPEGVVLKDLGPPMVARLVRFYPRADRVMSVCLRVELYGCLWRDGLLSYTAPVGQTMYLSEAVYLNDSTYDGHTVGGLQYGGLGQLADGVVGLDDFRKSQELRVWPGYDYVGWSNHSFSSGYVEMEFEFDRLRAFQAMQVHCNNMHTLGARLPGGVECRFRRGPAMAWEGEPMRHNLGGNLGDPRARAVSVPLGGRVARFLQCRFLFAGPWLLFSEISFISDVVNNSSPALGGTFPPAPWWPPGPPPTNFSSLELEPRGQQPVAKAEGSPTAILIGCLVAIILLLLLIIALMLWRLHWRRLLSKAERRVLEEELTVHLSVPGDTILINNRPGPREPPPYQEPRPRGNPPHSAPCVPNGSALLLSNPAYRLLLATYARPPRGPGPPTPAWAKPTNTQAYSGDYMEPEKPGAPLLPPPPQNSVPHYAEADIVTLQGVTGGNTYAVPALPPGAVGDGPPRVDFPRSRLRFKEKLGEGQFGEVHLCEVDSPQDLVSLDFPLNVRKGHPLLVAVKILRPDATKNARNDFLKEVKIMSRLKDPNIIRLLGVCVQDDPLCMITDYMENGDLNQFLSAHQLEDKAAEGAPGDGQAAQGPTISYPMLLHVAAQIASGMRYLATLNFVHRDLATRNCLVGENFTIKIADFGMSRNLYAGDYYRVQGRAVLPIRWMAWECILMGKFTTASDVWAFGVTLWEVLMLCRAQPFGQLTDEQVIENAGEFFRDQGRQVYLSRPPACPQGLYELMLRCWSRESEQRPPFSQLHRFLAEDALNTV

For orientation: inhibition means the drop in the measured response relative to a control, in per cent. Lower therefore signals a weak effect.

The structures appear in SMILES notation.

`Cc1c(-c2c3c(N)n[nH]c(=O)c3nn2-c2ccccc2)oc2ccccc12` registered an inhibition of 48%.
